Consider 99 compounds from PubChem BioAssay AID624125 (The Scripps Research Institute Molecular Screening Center, 2012).

Protein sequences, listed by entry. Tags and fused reporters are not part of them.
UniProt P08173, whole entry, looked up: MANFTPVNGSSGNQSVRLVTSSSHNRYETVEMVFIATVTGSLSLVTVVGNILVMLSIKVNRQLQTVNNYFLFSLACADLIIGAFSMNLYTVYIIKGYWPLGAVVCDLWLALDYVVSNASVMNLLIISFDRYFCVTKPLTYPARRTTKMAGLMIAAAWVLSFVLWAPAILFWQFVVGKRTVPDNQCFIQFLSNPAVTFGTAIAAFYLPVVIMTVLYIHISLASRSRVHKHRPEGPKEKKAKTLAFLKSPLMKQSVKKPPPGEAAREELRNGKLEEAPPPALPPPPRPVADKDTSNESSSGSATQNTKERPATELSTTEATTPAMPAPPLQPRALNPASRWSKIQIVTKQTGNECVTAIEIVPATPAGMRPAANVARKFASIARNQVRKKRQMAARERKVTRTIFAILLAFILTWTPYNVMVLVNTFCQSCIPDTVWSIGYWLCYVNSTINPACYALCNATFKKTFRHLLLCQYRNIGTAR

Only a part is listed here, and it is no random draw. The source made the active and inactive calls.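 Rule for the calls: active = inhibition above its plate's cutoff, the mean inhibition of sample wells plus 3 SD (cut at about 27% in these data); inactive = the rest.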

This experiment addresses Muscarinic acetylcholine receptor M4 (Homo sapiens) (UniProt P08173). Description: CHRM4 blockers of acetylcholine calcium response – CHO cells, Fluo-8 calcium fluorescence, primary screen (AID 624125).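 Note: 0% = acetylcholine EC80 with DMSO and 100% = DMSO without agonist.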 To be noted: CHO-hM4 cells, ACh EC80, Fluo-8 calcium fluorescence; at 3 µM; hits give high values.
As a reminder, the inhibition is the change of the read-out against control, counted positive when it falls. Consider `O=C(O)c1ccccc1[As](=O)(O)O`, for which the inhibition is inactive: -8.85%. For `CC(=O)Nc1ccc([As](=O)(O)O)cc1`, the inhibition is inactive: -10.8%.

For `CC(=O)O[C@]1(C)C(=O)OC/C2=C/CN(C)CCC(OC(=O)[C@@](O)(C(C)O)C[C@H]1C)C2=O` (some centres undefined), the inhibition is inactive: 0.65%.

Regarding `CCCC1OP(N)(=O)OCC1CC` (centres undefined), the inhibition is inactive: -18.6%. Turning to `CN(C)P(=O)(N(C)C)n1c(Nc2ccccc2)nnc1-c1ccccc1`, the inhibition is inactive: -2.84%. In the case of `O=P(Nc1nc2ccc(Cl)cc2s1)(c1ccccc1)c1ccccc1`, the inhibition is inactive: 15.8%. As for `CCOP(=O)(Nc1ccccc1)OCC`, the figure is inactive: -1.49%; as for `Cc1cc(SC(NC(=O)c2ccc(F)cc2)C(Cl)(Cl)Cl)ncn1` (centres undefined), inactive: 0.53%.

Consider `CN(C(=O)Cc1ccc(Cl)c(Cl)c1)[C@H]1CCCC[C@@H]1N1CCCC1`, for which the inhibition was inactive: -1.68%. For the compound `Cc1ccc(NP(=O)(Oc2ccccc2F)Oc2ccccc2F)nc1`, the inhibition was inactive: -7.29%. Consider `CCN(N=Nc1nonc1N)c1nonc1N`, for which the inhibition was active: 27.2%. The result for `Nc1cccc2ccc([As](=O)(O)O)cc12` reads inactive: 22.2%; that for `NC(=O)c1cc([N+](=O)[O-])cc([N+](=O)[O-])c1N`, inactive: -1.54%. `CN(C(=O)Cc1ccc(Cl)c(Cl)c1)[C@H]1CCCC[C@H]1N1CCCC1`: the inhibition is inactive: -9.7%.

With `Cc1ccc(N/C(=N/P(=O)(N2CCOCC2)N2CCOCC2)N2CCOCC2)cc1`, the inhibition was inactive: -16.1%. Turning to `CC(C)[C@H]1C(=O)O[C@@H]2CCN3CC=C(COC(=O)[C@](C)(O)[C@]1(C)O)[C@H]23`, the inhibition was inactive: 4.04%. Take `COc1ccccc1OP(=O)(Nc1ccc(C)cn1)Oc1ccccc1OC`: the inhibition is inactive: -9.54%.

Turning to `Cc1ccc(OP(=O)(Nc2nccs2)Oc2ccc(C)cc2)cc1`, the inhibition was inactive: 1.04%. The result for `Clc1ccc(Cl)c(NC2=NCC(CBr)S2)c1` (centres undefined) reads inactive: -1.43%; that for `CN1CCCC(OC(=O)C(c2ccccc2)c2ccccc2)C1` (centres undefined), active: 49.5%; that for `CC(C)CC(=O)NC(Sc1ccc(Cl)cc1)C(Cl)(Cl)Cl` (centres undefined), inactive: 3%. As for `Nc1cc(N)c2nonc2c1[N+](=O)[O-]`, the figure is inactive: 0.15%. In the case of `Oc1ccccc1CNc1ccccn1`, the inhibition was inactive: 13.7%. As for `O=C(NC(Sc1ccncn1)C(Cl)(Cl)Cl)c1ccccc1` (centres undefined), the figure is inactive: -1.58%; as for `O=[N+]([O-])C1C(O)C(O)C([N+](=O)[O-])C(O)C1O` (centres undefined), inactive: -1.65%; as for `COc1ccc(C2=NCC(CBr)S2)cc1` (centres undefined), inactive: -0.13%. Turning to `CC(=O)N1C2C3N(C(C)=O)C1C1N(C(C)=O)C(C(N1C(C)=O)N3C(C)=O)N2C(C)=O`, the inhibition is inactive: 5.28%. Turning to `O=[N+]([O-])c1cccc2n[nH]nc12`, the inhibition was inactive: 7.83%. For `Cc1ccc(NP(=O)(Oc2ccccc2)Oc2ccccc2)nc1`, the inhibition is inactive: -4.99%.

For the compound `O=[N+]([O-])c1cc([N+](=O)[O-])c(CCNc2ccccc2)c([N+](=O)[O-])c1`, the inhibition was inactive: -1.58%. As for `CCc1nc2c(n1)c1c(non1O)c1c2no[n+]1[O-]`, the inhibition was inactive: 4.35%.

On to `Nc1ccc([As](=O)(O)c2ccc(N)cc2)cc1`, for which the inhibition is inactive: 4.13%.

Regarding `C[N+]1=C2C=CC=CC=C2SC12C([N+](=O)[O-])=CC([N+](=O)[O-])=C[C-]2[N+](=O)[O-]` (centres undefined), the inhibition is active: 48.1%. The result for `CCN(/C(=N/P(=O)(N1CCOCC1)N1CCOCC1)N1CCOCC1)c1ccc(OC)cc1` reads inactive: -8.6%; that for `CC(C)=N/N=C(\N)N[N+](=O)[O-]`, inactive: 0.72%. As for `CC(C)c1nc(Nc2ccccc2)n(P(=O)(N(C)C)N(C)C)n1`, the inhibition is inactive: -11.7%. The result for `CN(C)C(=O)OCCc1n(C)cc[n+]1C` reads inactive: 11.2%; that for `c1cc(-c2nn[nH]n2)ccc1-c1nn[nH]n1`, inactive: -6.97%; that for `CC1CCN(C(=O)Oc2c(Cl)cc(Cl)c3cccnc23)CC1`, inactive: 6.38%. Take `O=P1(N(CCCl)CCCl)OCCCS1` (centres undefined): the inhibition is inactive: -1.61%. The result for `O=C(Nc1cc([As](=O)(O)O)ccc1O)c1ccccc1` reads inactive: -0.57%. Turning to `CC(C)(C)C(=O)NC(Sc1ccncn1)C(Cl)(Cl)Cl` (centres undefined), the inhibition is inactive: -7.27%. Consider `O=[N+]([O-])c1ncn(CCn2ncnc2[N+](=O)[O-])n1`, for which the inhibition is inactive: -4.13%.

For `O=[N+]([O-])c1cccc(NC2=NCC(CBr)S2)c1` (centres undefined), the inhibition is inactive: 7.33%. On to `COC(=O)C1(C)COP(=O)(Nc2ccccc2)OC1` (centres undefined), for which the inhibition is inactive: -9.32%. As to `C/C=C1/C[C@@H](C)[C@](O)(CO)C(=O)OCC2=CCN3CC[C@@H](OC1=O)[C@@H]23`, the inhibition was inactive: -6.91%. As for `O=C(O)CNc1ccc([As](=O)(O)O)cc1`, the figure is inactive: 5.55%.

For the compound `Nc1ccc(CCCCOc2ccccc2)cc1`, the inhibition is inactive: -2.68%. Regarding `COc1ccc(N)c([N+](=O)[O-])c1[N+](=O)[O-]`, the inhibition was inactive: -0.34%. The result for `O=P(Nc1ccccn1)(c1ccc(Br)cc1)c1ccc(Br)cc1` reads inactive: -12.5%; that for `O=P(Nc1nc2ccccc2s1)(c1ccccc1)c1ccccc1`, inactive: 5.16%. As for `C[C@H]1OP(=O)(Oc2ccccc2)[C@H](O)[C@H](O)[C@H]1N=[N+]=[N-]` (some centres undefined), the figure is inactive: -5.86%; as for `CC(=O)NC(SC(=S)N(C)C)C(Cl)(Cl)Cl` (centres undefined), inactive: 6.29%; as for `O=[N+]([O-])c1ncn(CCn2cnc([N+](=O)[O-])n2)n1`, inactive: -6.68%. As for `O=[N+]([O-])c1ccc(O)c(/C=N/Nc2ccc([N+](=O)[O-])cc2[N+](=O)[O-])c1`, the figure is inactive: -5.9%. For the compound `O=[As](O)(c1ccccc1)c1ccc(O)cc1`, the inhibition was inactive: 3.47%. With `Nc1ccc([As](=O)(O)c2ccc([N+](=O)[O-])cc2)cc1`, the inhibition was inactive: -1.44%.

For `C(Cc1nn[nH]n1)Cc1nn[nH]n1`, the inhibition was inactive: 1.69%.

Take `O=P(Nc1nccs1)(c1ccccc1)c1ccccc1`: the inhibition was inactive: 4.32%. The result for `CC(C)C(=O)NC(Sc1ccccc1)C(Cl)(Cl)Cl` (centres undefined) reads inactive: -19.4%; that for `c1nnnn1CCn1cnnn1`, inactive: 3.17%. As to `O=P1(Nc2nc3ccc(Cl)cc3s2)COc2ccccc2O1` (centres undefined), the inhibition is inactive: -10.8%.

Regarding `CCOc1ccc(C2=NCC(CBr)S2)cc1` (centres undefined), the inhibition is inactive: 2.48%.

Take `CCc1cc(O)c([N+](=O)[O-])c(C)c1[N+](=O)[O-]`: the inhibition is inactive: 9.33%. As for `CC(C)(C)C(=O)NC(Sc1ccccc1)C(Cl)(Cl)Cl` (centres undefined), the figure is inactive: 1.48%. As to `N#C/C(=C\c1ccc(N(CCBr)CCBr)cc1)C(N)=O`, the inhibition is inactive: 2.79%. `CC(=O)c1ccc(N2CC2c2ccncc2)cc1` (centres undefined): the inhibition is inactive: -4.25%. The result for `CC1C(=O)OC2CCN3CC=C(COC(=O)C(C)(O)C1(C)O)C23` (centres undefined) reads inactive: -14.9%; that for `COC(=O)C1(C)COP(=O)(NCc2ccccc2)OC1` (centres undefined), inactive: -8.95%.

On to `CCN(CC)CCOC(=O)C(O)(c1ccccc1)c1ccccc1`, for which the inhibition is active: 98.8%. Consider `Cc1ccccc1CN(C)C(=O)COC(=O)C(O)(c1ccccc1)c1ccccc1`, for which the inhibition is inactive: -4.1%. Turning to `C[C@@H]1C=CCP(=O)(Oc2ccccc2)O1` (some centres undefined), the inhibition was inactive: -2.44%. For the compound `C[C@H]1OP(=O)(Oc2ccccc2)C[C@@H]2O[C@@H]21` (some centres undefined), the inhibition is inactive: 2.65%.

For the compound `CC(=O)Nc1ccc([As](=O)(O)O)c(O)c1`, the inhibition was inactive: 6.89%.

Consider `CC(=O)Nc1ccc(Oc2c([N+](=O)[O-])cc([N+](=O)[O-])cc2[N+](=O)[O-])cc1`, for which the inhibition was inactive: -0.34%. The result for `O=C(NC1CCS(=O)(=O)C1)NP(=S)(Oc1ccccc1)Oc1ccccc1` (centres undefined) reads inactive: -2.3%. As for `CCNC(=S)/N=C(\N)N[N+](=O)[O-]`, the figure is inactive: -3.76%; as for `c1ccc(-c2nn[nH]n2)c(-c2nn[nH]n2)c1`, inactive: -1.92%.

For `Cc1ccc(NP(=O)(Oc2cccc(C)c2)Oc2cccc(C)c2)nc1`, the inhibition was inactive: 3.28%.

In the case of `C=C1C(=O)OC2CCN3CC=C(COC(=O)C(C)(O)C4(CO4)C1C)C23` (centres undefined), the inhibition is inactive: 0.45%. Take `O=P1(N(CCCl)CCCl)OCCC2CCCCN21` (centres undefined): the inhibition was inactive: -8.35%.

For `CC1C(=O)OC2CCN3CC4OC4(COC(=O)C(C)(O)C1(C)O)C23` (centres undefined), the inhibition is inactive: -5.2%. As to `COC(=O)c1cc2c(s1)N=C(c1ccccc1)N(C)P2(=O)N1CCOCC1` (centres undefined), the inhibition is inactive: 6.95%. The result for `CC(=O)NC(SC(=S)N(CC(C)C)CC(C)C)C(Cl)(Cl)Cl` (centres undefined) reads inactive: -4.5%. As for `Cc1ccc(OP(=O)(Nc2ccccn2)Oc2ccc(C)cc2)cc1`, the figure is inactive: -1.35%; as for `Clc1ccc(N2CCN(Cc3c[nH]c4ncccc34)CC2)cc1`, inactive: -20.9%; as for `CCC(=O)N1C2C3N(C(=O)CC)C1C1N(C(=O)CC)C(C(N1C(=O)CC)N3C(=O)CC)N2C(=O)CC`, inactive: 1.93%. On to `CCN(C(=O)COC(=O)C(O)(c1ccccc1)c1ccccc1)c1c(N)n(Cc2ccccc2)c(=O)[nH]c1=O`, for which the inhibition was inactive: -4.26%. On to `Cc1ccccc1OP(=O)(Nc1ccccn1)Oc1ccccc1C`, for which the inhibition is inactive: -2.46%. As to `CC(NC(=O)COC(=O)C(O)(c1ccccc1)c1ccccc1)c1ccccc1` (centres undefined), the inhibition was inactive: -10.6%. As for `CN(C)C(=O)Oc1noc2ccccc12`, the figure is inactive: -1.22%; as for `O=c1c2cc([N+](=O)[O-])ccc2[nH]c2c([N+](=O)[O-])cc([N+](=O)[O-])cc12`, inactive: 0.27%. `CS(=O)(=O)c1cc([N+](=O)[O-])c2no[n+]([O-])c2c1`: the inhibition was inactive: 5.08%. On to `CCOP1(=S)c2c(C)nn(CCC#N)c2N=C(c2ccccc2F)N1C` (centres undefined), for which the inhibition was inactive: 14.1%.

As for `O=P(Nc1nccs1)(c1ccccc1)c1nc2ccccc2s1` (centres undefined), the inhibition was inactive: -0.36%. On to `O=P(Nc1nccs1)(Oc1ccccc1)Oc1ccccc1`, for which the inhibition is inactive: -9.83%. With `O=C(O)COc1ccc([As](=O)(O)O)cc1[N+](=O)[O-]`, the inhibition is inactive: 0.08%. The result for `Nc1ccccc1[As](=O)(O)c1ccccc1` reads inactive: -10.3%. The result for `NC(=O)Nc1ccc([As](=O)(O)O)cc1` reads inactive: 5.79%.
